Screening data deposited in PubChem BioAssay by several laboratories.
Compounds with a hit are over-represented: about 0.94% of the library has one in this group of screens.
Granule exo inh = lytic granule exocytosis inhibition; TALL-104 LAMP-1 surface exposure, flow cytometry; cells stimulated with thapsigargin and PMA; inhibition, % at 10 µM; actives 0.66% (n = 360,000); AID 651702;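 active means inhibition above about 55%, limit read from the data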
ABCB6 inh 2 = blocks the human ABCB6 transporter. Q9NP58. K562-ABCB6 porphyrin accumulation, flow cytometry, 1 h; hits give low values. fluorescence ratio to DMSO, % at 10 µM. actives 0.19% (n = 360,000);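 active means fluorescence ratio to DMSO below 75%, the collection mean minus 3 SD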;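 further: signal is porphyrin accumulated inside mitochondria; 100% equals median channel fluorescence of DMSO control wells; lower ratio means ABCB6 inhibition with less porphyrin fluorescence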
pCIP destab = p/CIP protein destabilization; Q05BA5; F442A p/CIP-EGFP cells, EGFP fluorescence, 16 h; decrease of EGFP signal, % at 10 µM; actives 0.01% (n = 290,000); AID 1984;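 active means EGFP signal decrease of at least 30% at 10 µM or well 3 SD below plate mean, unless failing retest; inactive means the rest, including hits failing retest or dose response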
PKA-R2B activ = activators of human PKA-R2B complex; P22694+P31323; PKA-R2B holoenzyme dissociation, Cy5-IP20 fluorescence polarization; R2B truncated from residue 108, S112A mutant; 0% DMSO only, 100% 113 µM cGMP; activation, % at 11.4 µM; actives 0.079% (n = 340,000); AID 504700;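 active means activation above a cutoff set at the mean over all compounds plus 3 SD, cut at about 18% in these data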;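 further: higher means more holoenzyme dissociation and a rise in polarization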
UUG fidelity = alters start codon recognition fidelity in yeast. S. cerevisiae UUG-firefly luciferase reporter, luminescence/redox ratio. AID 602363. activity score, % at 18.7 µM. hit rate 0.13% among 350,000;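 active = replicate mean at a twofold rise or more, about +100% in these data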;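 note: firefly luciferase made from a UUG start codon reports start codon fidelity; reporter light over untreated wells divided by growth signal over untreated wells; some hits fall short of that in this replicate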
PKA-R1A act = activates the PKA-R1A holoenzyme complex | P00514+P68181 | PKA-R1A dissociation, Cy5-IP20 fluorescence polarization; scaled: DMSO 0%, 113 µM cGMP 100% | activation, % at 11.4 µM | actives 0.083% (n = 340,000) | AID 504707;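 active means percent activation above the mean of all tested compounds plus 3 SD, cut at about 19% in these data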;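 further: higher means more PKAc released from R1A so a rise in polarization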
R2B FP artifact = fluorescence polarization artifact in PKA-R2B activator counter-screen | activation, % at 11.4 µM | shares compounds with PKA-R2B activ | actives 6% (n = 270) | FP artifact counterscreen | AID 504796; in the data active means activation above about 20%;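 further: Cy5 labelled IP20 peptide probe with compound but no PKA protein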
PKA-R2B act conf = confirmation of human PKA-R2B complex activators | shares compounds with PKA-R2B activ | fluorescence polarization, activation | activation, % at 11.4 µM | actives 9% (n = 270) | AID 504797; in the data active means activation above about 19%
The depositor's hits bear a star.

For CS(=O)(=O)Nc1ccc2c(c1)[C@@H]1C[C@@H](CC(=O)NCc3ccc(Oc4ccccc4)cc3)O[C@@H](CO)[C@@H]1O2 the results were UUG fidelity 1.1.
Screening COc1cccc(C(=O)Nc2ccc3c(c2)OC[C@@H](C)N(C(C)=O)C[C@@H](C)[C@H](OC)CN(C)C3=O)c1 returned UUG fidelity 5.1.
`COC(=O)COc1cc(OCC(=O)OC)c2c(-c3ccccc3)cc(=O)oc2c1` gave Granule exo inh 8.0, ABCB6 inh 2 96.0, pCIP destab 1.8, PKA-R2B activ 1.9, UUG fidelity -6.0 and PKA-R1A act 8.1.
For COC(=O)C(C)Oc1cc(OC(C)C(=O)OC)c2c(-c3ccccc3)cc(=O)oc2c1 (stereo not drawn) the results were Granule exo inh 62.7*, ABCB6 inh 2 97.0, pCIP destab 6.4, PKA-R2B activ 12.5, UUG fidelity 2.1 and PKA-R1A act 2.2.
`O=C1C2C3C=CC(CO)(O3)C2C(=O)N1c1ccccc1-c1ccccc1` (stereo not drawn) gave Granule exo inh 63.5*, ABCB6 inh 2 94.0, pCIP destab -6.9, PKA-R2B activ -12.5, UUG fidelity 6.5 and PKA-R1A act 0.3.
Screening COc1ccc(S(=O)(=O)Nc2ccc3c(c2)C(=O)N([C@@H](C)CO)C[C@@H](C)[C@H](CN(C)C(=O)C2CCCCC2)OCCCC[C@H](C)O3)cc1 returned UUG fidelity 13.1.
COc1ccc(N2CSC3=C(C#N)C(c4cc(OC)c(OC)cc4OC)CC(=O)N3C2)c(OC)c1 (stereo not drawn) was read as Granule exo inh 7.0, ABCB6 inh 2 102.0, pCIP destab -9.8, PKA-R2B activ 1.3, UUG fidelity -1.8 and PKA-R1A act 0.1.
`COc1ccc(N2CSC3=C(C#N)C(c4cc(OC)ccc4OC)CC(=O)N3C2)c(OC)c1` (stereo not drawn) gave Granule exo inh 5.3, ABCB6 inh 2 74.0*, pCIP destab -1.3, PKA-R2B activ 0.3, UUG fidelity -9.8 and PKA-R1A act 7.7.
For Cc1noc(C)c1NC(=O)Nc1ccc2c(c1)C(=O)N([C@@H](C)CO)C[C@@H](C)[C@H](CN(C)Cc1ccc(Oc3ccccc3)cc1)O2 the results were UUG fidelity -2.3.
For Cc1ccc(NN2C(=O)C=C(c3ccccc3)C2=O)cc1 the results were Granule exo inh 67.2*, ABCB6 inh 2 96.0, pCIP destab -7.8 and UUG fidelity -28.9.
Screening O=C1c2ccccc2C(=O)N1Nc1ccccc1 returned Granule exo inh 0.6, ABCB6 inh 2 102.0, pCIP destab -15.3, PKA-R2B activ -0.9 and PKA-R1A act -2.4.
`Cc1ccc(/C(C#N)=C\c2ccc(N3CCOCC3)o2)cc1` gave Granule exo inh 77.8*, ABCB6 inh 2 133.0, pCIP destab -2.6, PKA-R2B activ 0.1, UUG fidelity -21.5 and PKA-R1A act 11.3.
`N#C/C(=C/c1ccc(N2CCCCCC2)o1)c1ccc(Cl)cc1` gave Granule exo inh 83.7*, ABCB6 inh 2 203.0, pCIP destab -21.0, PKA-R2B activ -18.1, UUG fidelity -21.3 and PKA-R1A act -4.4.
Cc1ccc2nc(/C(C#N)=C\c3ccc(N4CCOCC4)o3)[nH]c2c1 was read as Granule exo inh 0.7, ABCB6 inh 2 173.0, pCIP destab -13.6, PKA-R2B activ 9.2 and PKA-R1A act -0.1.
`N#C/C(=C/c1ccc(N2CCCCC2)o1)c1cccc(F)c1` gave Granule exo inh 25.0, ABCB6 inh 2 162.0, pCIP destab -8.1, PKA-R2B activ -0.5, UUG fidelity -9.0 and PKA-R1A act -7.7.
COc1cc(/C=C2\SC(=O)N(CCNC(=O)c3sc4cc(F)ccc4c3Cl)C2=O)cc(OC)c1OC was read as Granule exo inh -10.8, ABCB6 inh 2 73.0*, pCIP destab 3.6, PKA-R2B activ -9.9, UUG fidelity 4.2 and PKA-R1A act 3.1.
Cc1onc(-c2ccccc2Cl)c1C(=O)NCc1cccnc1 was read as Granule exo inh -1.4, ABCB6 inh 2 103.0, pCIP destab 18.4, PKA-R2B activ 20.3*, UUG fidelity -8.1, PKA-R1A act 10.0, R2B FP artifact 3.1 and PKA-R2B act conf 4.8.
For C[C@H](CO)N1C[C@H](C)[C@@H](CN(C)S(=O)(=O)c2ccccc2)Oc2ccc(NS(=O)(=O)c3ccc(F)cc3)cc2CC1=O the results were UUG fidelity -0.2.
O=c1[nH]cnc2nc(-c3ccccc3)c(-c3ccccc3)nc12 was read as Granule exo inh -0.5, ABCB6 inh 2 100.0, pCIP destab 7.8, PKA-R2B activ 5.3, UUG fidelity -8.4 and PKA-R1A act 4.1.
Screening O=c1[nH]cnc2ncc(-c3ccc(O)cc3)nc12 returned Granule exo inh -2.8, ABCB6 inh 2 103.0, PKA-R2B activ 20.4*, UUG fidelity -0.7, PKA-R1A act -9.7, R2B FP artifact 7.1 and PKA-R2B act conf 6.8.
Screening C[C@@H]1CN([C@@H](C)CO)C(=O)c2cc(NC(=O)Cn3cnnn3)ccc2O[C@H]1CN(C)C(=O)Nc1ccccc1 returned UUG fidelity -6.0.
For N=c1c2c(ncn1CCCO)Oc1c(ccc3ccccc13)C2c1ccccc1 (stereo not drawn) the results were Granule exo inh 23.7, ABCB6 inh 2 94.0, pCIP destab -9.2, PKA-R2B activ -10.8 and PKA-R1A act -10.3.
CN(C)CCCn1cnc2c(c1=N)C(c1ccccc1)c1ccc3ccccc3c1O2 (stereo not drawn) was read as Granule exo inh 24.6, ABCB6 inh 2 96.0, pCIP destab -8.1, PKA-R2B activ 21.7*, UUG fidelity -7.0, PKA-R1A act -4.3, R2B FP artifact 2.1 and PKA-R2B act conf 2.4.
`COc1ccc(NC(=O)Nc2ccc3c(c2)C(=O)N([C@@H](C)CO)C[C@H](C)[C@H](CN(C)Cc2ccc4c(c2)OCO4)OCCCC[C@H](C)O3)cc1` gave UUG fidelity 11.7.
`Oc1ccccc1OCC(O)c1ccccc1` (stereo not drawn) gave Granule exo inh -14.4, ABCB6 inh 2 99.0, pCIP destab -8.9, PKA-R2B activ 18.5*, UUG fidelity -19.2, PKA-R1A act -10.0, R2B FP artifact 5.3 and PKA-R2B act conf 3.4.
